Assay results as given in patent publication US12371450B2.

Amino acid sequences for entries named in this document (tags omitted).
UniProt Q92633, whole entry: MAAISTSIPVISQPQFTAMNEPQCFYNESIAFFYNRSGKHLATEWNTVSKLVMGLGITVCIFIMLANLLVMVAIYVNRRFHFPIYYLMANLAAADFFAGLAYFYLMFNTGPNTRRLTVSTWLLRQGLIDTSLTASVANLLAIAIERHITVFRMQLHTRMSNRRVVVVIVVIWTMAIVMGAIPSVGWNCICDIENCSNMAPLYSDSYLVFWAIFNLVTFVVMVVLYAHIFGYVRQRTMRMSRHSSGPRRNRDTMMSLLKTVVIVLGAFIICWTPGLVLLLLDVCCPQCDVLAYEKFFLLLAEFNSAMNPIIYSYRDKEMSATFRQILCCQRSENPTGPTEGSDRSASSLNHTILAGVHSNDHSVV
UniProt Q9HBW0, whole entry: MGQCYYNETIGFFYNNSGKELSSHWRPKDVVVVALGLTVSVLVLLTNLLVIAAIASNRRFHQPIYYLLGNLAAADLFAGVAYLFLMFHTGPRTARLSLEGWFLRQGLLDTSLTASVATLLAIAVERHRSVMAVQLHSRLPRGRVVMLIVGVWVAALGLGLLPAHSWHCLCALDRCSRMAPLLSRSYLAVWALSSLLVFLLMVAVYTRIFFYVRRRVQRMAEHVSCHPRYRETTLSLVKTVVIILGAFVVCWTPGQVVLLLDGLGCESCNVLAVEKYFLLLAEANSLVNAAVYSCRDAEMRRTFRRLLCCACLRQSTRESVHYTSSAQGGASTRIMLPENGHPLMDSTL
UniProt Q9UBY5, whole entry: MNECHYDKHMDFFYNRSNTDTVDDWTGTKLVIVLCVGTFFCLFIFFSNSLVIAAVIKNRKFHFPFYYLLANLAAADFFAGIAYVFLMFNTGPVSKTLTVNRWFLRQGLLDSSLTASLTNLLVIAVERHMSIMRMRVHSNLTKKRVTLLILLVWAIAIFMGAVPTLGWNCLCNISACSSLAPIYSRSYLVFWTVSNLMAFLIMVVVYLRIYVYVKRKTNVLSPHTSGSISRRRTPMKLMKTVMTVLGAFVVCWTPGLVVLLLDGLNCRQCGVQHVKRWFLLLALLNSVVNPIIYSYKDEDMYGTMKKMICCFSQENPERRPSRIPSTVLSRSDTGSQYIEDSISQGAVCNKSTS
UniProt Q99677, whole entry: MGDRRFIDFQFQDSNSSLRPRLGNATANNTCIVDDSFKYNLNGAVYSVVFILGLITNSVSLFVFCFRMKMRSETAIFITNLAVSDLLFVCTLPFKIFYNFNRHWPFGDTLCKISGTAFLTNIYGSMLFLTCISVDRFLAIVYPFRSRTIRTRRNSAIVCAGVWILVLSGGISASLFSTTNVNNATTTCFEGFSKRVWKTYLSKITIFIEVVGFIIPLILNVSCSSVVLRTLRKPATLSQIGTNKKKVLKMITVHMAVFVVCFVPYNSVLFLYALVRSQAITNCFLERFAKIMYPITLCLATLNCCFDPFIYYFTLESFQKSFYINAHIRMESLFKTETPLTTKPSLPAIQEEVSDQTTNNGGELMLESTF
UniProt Q9H1C0, whole entry: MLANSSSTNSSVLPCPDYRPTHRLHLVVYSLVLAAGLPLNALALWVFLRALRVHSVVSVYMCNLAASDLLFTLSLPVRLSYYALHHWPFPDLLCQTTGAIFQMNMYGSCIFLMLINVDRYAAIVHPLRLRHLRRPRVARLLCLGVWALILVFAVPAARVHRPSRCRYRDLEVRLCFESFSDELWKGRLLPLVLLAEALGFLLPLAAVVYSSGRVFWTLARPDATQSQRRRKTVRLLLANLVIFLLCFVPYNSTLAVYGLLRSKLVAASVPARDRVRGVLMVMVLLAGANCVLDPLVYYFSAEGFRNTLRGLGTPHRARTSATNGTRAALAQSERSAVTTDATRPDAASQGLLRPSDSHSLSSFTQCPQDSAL
UniProt P43657, whole entry: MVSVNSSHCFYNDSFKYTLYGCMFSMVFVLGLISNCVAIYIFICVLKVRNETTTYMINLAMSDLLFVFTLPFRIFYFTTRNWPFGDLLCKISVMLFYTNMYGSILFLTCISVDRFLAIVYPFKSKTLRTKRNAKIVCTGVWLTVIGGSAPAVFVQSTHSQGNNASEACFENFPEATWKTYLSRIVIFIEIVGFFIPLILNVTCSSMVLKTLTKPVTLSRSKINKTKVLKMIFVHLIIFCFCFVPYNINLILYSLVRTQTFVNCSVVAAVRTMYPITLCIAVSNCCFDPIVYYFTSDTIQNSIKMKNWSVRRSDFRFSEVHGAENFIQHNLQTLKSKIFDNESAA

Legend:
ATX [1] = target: T1, ATX (Homo sapiens, UniProt Q13822); experiment: Measurement of ATX activity using mass spectrometer (LPA 16:0 synthesis from LPC 16:0); details: ATX 50 nM, LPC 16:0 10 μM, compound final concentration of 10, 37° C., LC-MS/MS
Experimental: ATX and LPC 16:0 were suspended in 40 μL of a Tris buffer (50 mM Tris-HCl, pH 8.0, 140 mM NaCl, 5 mM KCl, 1 mM CaCl2, and 1 mM MgCl2) to result in final concentrations of 50 nM and 10 μM, respectively. Also, 2ccPA or 2carbaLPA was suspended in the aforementioned Tris buffer to result in a final concentration of 10 Thereafter, the obtained mixture was incubated at 37° C. At each reaction time, 160 μL of acidic methanol was added to and fully suspended in the reaction solution. Thereafter, the obtained solution was filtrated through a filter (0.2 μm Captiva Premium syringe filter, Agilent Technologies), so as to obtain a sample for QTRAP (registered trademark) 5500 triple quadrupole/linear ion trap mass spectrometer (SCIEX, Framingham, MA). The measurement was carried out in the same manner as that described in the study paper (Journal of Chromatography B 1076 (2018) 15-21, Quantitative determination of cyclic phosphatidic acid and its carba analog in mouse organs and plasma using LC-MS/MS). 2ccPA was measured at Q1/Q3=415.26/281.25, whereas 2carbaLPA was measured at Q1/Q3=433.27/151.02. Also, LPA was measured at Q1/Q3=409,24/153.00. The amount of LPA 16:0 that came to be synthesized at each reaction time was measured.

ATX [2] = target: T1, ATX; experiment: Measurement of ATX activity by choline oxidase, using LPC as substrate; details: ATX 50 nM, LPC 16:0 300 μM, compound 0.01 to 10 μM, 37° C. 120 minutes, absorbance 555 nm
Experimental: ATX and LPC 16:0 were dissolved in 100 μL of a choline oxidase reaction solution (0.05% 4-aminoantipyrine, 0.05% TOOS (N-Ethyl-N-(2-hydroxy-3-sulfopropyl)-3-methylaniline, sodium salt, and dihydrate), 1 unit of peroxidase, 1 unit of choline oxidase, 50 mM Tris-HCl, pH 8.0, 140 mM NaCl, 5 mM KCl, 1 mM CaCl2, and 1 mM MgCl2) to result in final concentrations of 50 nM and 300 μM, respectively. Also, 2ccPA or 2carbaLPA was dissolved in the aforementioned choline oxidase reaction solution to a final concentration of 0.01 to 10 μM. The thus obtained solution was dispensed in a 96-well plate (100 μL/well). Thereafter, the plate was incubated at 37° C. for 120 minutes. After completion of the incubation, absorbance (555 nm) was measured using a plate reader (Biotek (Winooski, VT) Cytation 3 plate reader). Inhibitory activity was calculated according to the equation: inhibitory activity (%)=(1−increased absorbance 120 minutes after addition of inhibitor/increased absorbance 120 minutes after non-addition of inhibitor)×100.

ERK = experiment: ERK-phosphorylating action in SW1353 cells (Western blotting); details: 10 μM, 37° C. for 30 minutes, serum-free
Experimental: SW1353 cells were seeded at a density of 3×10^4 cells/well on a 6-well plate. On the following day, the cell culture solution was exchanged with a serum-free culture solution, and the cells were cultured for 6 hours. Thereafter, 2carbaLPA dissolved in 0.1% BSA/PBS or 0.1% BSA/PBS (Vehicle) was added to the culture to a final concentration of 10 μM.

[3] = Plasma 2ccPA and 2carbaLPA in rats after oral enteric-coated capsule of 2ccPA; details: 2ccPA in enteric-coated capsule orally to SD rats, 2carbaLPA generated in the body, LC-MS/MS
Experimental: 2ccPA (19.70±1.39 mg) was enclosed in a capsule (size 9, Torpac Inc., Fairfield, NJ)). In order to create an enteric-coated capsule, the capsule was coated with Eudragit S100/L100 (4/1, 11 mg/cm^2, pH 6.8) (Evonik Japan Co., Ltd., Tsukuba, Japan). The thus obtained capsule was orally administered to 7-week-old SD rats (body weight: 190 to 220 g), into each of which a cannula had been transvenously inserted in advance, using a capsule injector (Natsume Seisakusho, Tokyo, Japan). The cannula-inserted rats were purchased from Oriental Yeast Co., Ltd. Blood (300 μL each) was recovered from a carotid artery catheter over time. EDTA-Na2 (1 mg/mL) was added to the recovered blood, and the thus obtained blood was then centrifuged (1000×g, 10 minutes, 4° C.) to obtain plasma. The plasma sample was immediately frozen with liquid nitrogen, and was then preserved at −80° C. until the measurement. A lipid fraction was extracted from the plasma sample in the same manner as that described in the study paper (Journal of Chromatography B 1076 (2018) 15-21, Quantitative determination of cyclic phosphatidic acid and its carba analog in mouse organs and plasma using LC-MS/MS). The measurement of 2ccPA and 2carbaLPA using a mass spectrometer was carried out in the same manner as the measurement of ATX activity using a mass spectrometer described in Example 3(1).

human LPA1 = human LPA1 (Homo sapiens, UniProt Q92633); experiment: AP-TGFα release assay, agonist activity against human LPA1
Experimental: (§1) HEK293A or ΔLPA2/5/6 HEK293A was suspended in a Dulbecco-modified Eagle's medium (DMEM supplemented with 10% fetal calf serum, 100 U/mL penicillin, and 100 μg/mL streptomycin) to result in a concentration of 2×10^5cells/mL, and the thus obtained suspension was then seeded on a dish having a diameter of 100 mm (10 mL/dish). Thereafter, the cells were incubated at 37° C. in 5% CO2 for 24 hours.
(§2) The below-mentioned plasmid solution (500 μL) was mixed with a polyethyleneimine (PEI, Polysciences) solution (500 μL), and the mixed solution was then incubated at room temperature for 20 minutes. Thereafter, the reaction mixture was added dropwise into the culture supernatant (1 mL/dish). Thereafter, the cells were incubated at 37° C. in 5% CO2 for 24 hours.
(§3) Mock-transfected cells were transfected with an empty vector, instead of a GPCR expression vector. In addition, LPA1- and LPA5-expressing cells and control cells thereof were also transfected with a Gαq/i1 expression vector (0.5 μg/dish). […]
(§4) The cells were incubated at 37° C. in 5% CO2 for 60 minutes, and the plate was then centrifuged (190×g, 2 min). […] Immediately after the dispensing and 1 hour after the dispensing, OD405 was measured. […]
(§5) EC50 and Emax were calculated by fitting the data to a 4-parameter logistic curve, using Graphpad Prism 6 (Graphpad).

human LPA2 = human LPA2 (Homo sapiens, UniProt Q9HBW0); experiment: AP-TGFα release assay, agonist activity against human LPA2
Experimental: as §1, §2, §3, §4, §5

human LPA3 = human LPA3 (Homo sapiens, UniProt Q9UBY5); experiment: AP-TGFα release assay, agonist activity against human LPA3
Experimental: as §1, §2, §3, §4, §5

human LPA4 = human LPA4 (Homo sapiens, UniProt Q99677); experiment: AP-TGFα release assay, agonist activity against human LPA4
Experimental: as §1, §2, §3, §4, §5

human LPA5 = human LPA5 (Homo sapiens, UniProt Q9H1C0); experiment: AP-TGFα release assay, agonist activity against human LPA5
Experimental: as §1, §2, §3, §4, §5

human LPA6 = human LPA6 (Homo sapiens, UniProt P43657); experiment: AP-TGFα release assay, agonist activity against human LPA6
Experimental: as §1, §2, §3, §4, §5

CCCCCCCC/C=C\CCCCCCCC(=O)OCC(CO)CP(=O)(O)O (stereo not shown)
synthesis of LPA 16:0 by ATX (ATX [1]): the synthesis of LPA was suppressed
inhibition of ATX activity (ATX [2]): inhibit ATX activity in a concentration-dependent manner
ERK phosphorylation (pERK band) (ERK): can phosphorylate ERK
time of peak of 2carbaLPA in blood sample after 2ccPA administration [3]: almost the same above period of time as a peak
agonist activity against LPA1 (human LPA1; in words): exhibited agonist activity
EC50 (human LPA1; read-out: agonist activity (EC50) against LPA1, HEK293A cells, Gαq/i1 co-expressed, 60 minutes): 10 nM
agonist activity against LPA2 (human LPA2; in words): exhibited agonist activity
EC50 (human LPA2; read-out: agonist activity (EC50) against LPA2, ΔLPA2/5/6 HEK293A cells, Gαq/s co-expressed, 60 minutes): 90 nM
agonist activity against LPA3 (human LPA3; in words): exhibited agonist activity
EC50 (human LPA3; read-out: agonist activity (EC50) against LPA3, ΔLPA2/5/6 HEK293A cells, 60 minutes): 1.2 nM
agonist activity against LPA4 (human LPA4; in words): exhibited agonist activity
EC50 (human LPA4; read-out: agonist activity (EC50) against LPA4, HEK293A cells, Gαq/s co-expressed, Ki16425 added, 60 minutes): 0.7 nM
agonist activity against LPA5 (human LPA5; in words): exhibited agonist activity
EC50 (human LPA5; read-out: agonist activity (EC50) against LPA5, ΔLPA2/5/6 HEK293A cells, Gαq/i1 co-expressed, Ki16425 added, 60 minutes): 27 nM
agonist activity against LPA6 (human LPA6; in words): exhibited agonist activity
EC50 (human LPA6; read-out: agonist activity (EC50) against LPA6, ΔLPA2/5/6 HEK293A cells, Ki16425 added, 60 minutes): 43 nM
